# Sampled rows, rich in hits. Any-hit rate of the full collection: about 1.7%.
# CAL PDZ FP-1 = inhibitors of human CAL PDZ peptide binding; purified CAL PDZ, TMR-peptide fluorescence polarization, 1 h; inhibition, % at 24.9 µM; actives 0.92% (n = 300,000);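 active means mean inhibition of at least 30% with at least half of replicates also reaching 30%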
# Dyrk1A ADPGlo = inhibitors of rat Dyrk1A kinase. Q63470. ADP-Glo luminescence, NFATc1 peptide. inhibition, % at 12.5 µM. actives 0.43% (n = 310,000); in the data active means inhibition above about 50%
# dFosB act = enhances mouse delta FosB homodimer DNA binding. purified delta FosB, TAMRA-CDK5 oligo fluorescence polarization; percent of positive-control signal above neutral wells. actives 0.99% (n = 340,000). activation, % at 25 µM. AID 493131. P13346;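 active means mean activation above about 17%, with every replicate also reaching it, limit read from the data, passing the limit was not always enough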
# CAL PDZ FP-2 = human CAL PDZ-peptide interaction inhibition; Q9HD26; actives 0.02% (n = 330,000); purified CAL PDZ, TMR-peptide fluorescence polarization, 1 h; inhibition, % at 20 µM;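 active means highest replicate inhibition of at least 40%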
#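 Material – purified CerCALP PDZ construct · Detection – FP readout, S and P plane fluorescence · Measure – percent inhibition from loss of millipolarization · Controls – unlabelled peptide for full inhibition, DMSO wells as neutral · Probe or stimulus – TMR-labelled reporter peptide T*-PRC34 bound in PDZ groove · Times – 1 h at RT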
# CDK5 inh = blocks human CDK5/p35 kinase activity; Q00535+Q15078; Recombinant CDK5/p35, ADP-Glo luminescence, 60 min; inhibition, % at 10 µM; actives 0.01% (n = 330,000); AID 488839;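 active means highest replicate inhibition of at least 50% and at least 75% of replicates reaching 50%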
# Yeast UUG start = yeast start codon fidelity modulation | S. cerevisiae UUG-firefly luciferase reporter, luminescence/redox ratio | activity score, % at 18.7 µM | 0.13% of 350,000 active | AID 602363;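 active means replicate mean at a twofold rise or more, about +100% in these data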;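 further: firefly luciferase made from a UUG start codon reports start codon fidelity; reporter light over untreated wells divided by growth signal over untreated wells; some hits fall short of that in this replicate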
# A number is an active result; 0 = inactive; - = not tested or not shown; ! = repeats disagree.
SMILES,CAL PDZ FP-1,Dyrk1A ADPGlo,dFosB act,CAL PDZ FP-2,CDK5 inh,Yeast UUG start
COC(=O)C1=C(C)NC(C)=C(C(=O)OC)C1C(=O)OC(C)C(=O)c1ccccc1 (configuration not stated),50.2!,0,0,0,0,0
O=C(C[C@H]1C=C[C@@H](NC(=O)C2CCC2)[C@@H](CO)O1)Nc1nccs1,-,-,-,-,-,0
CC(=O)c1cc(O)c2ccccc2c1O,0,62.2,0,0,0,0
Cc1ccc(S(=O)(=O)c2cc3ccccc3nc2N)cc1,39.5,-,0,0,0,0
Cc1noc(C)c1NC(=O)Nc1ccc2c(c1)CC(=O)N([C@@H](C)CO)C[C@@H](C)[C@@H](CN(C)Cc1ccc(C(F)(F)F)cc1)O2,-,-,-,-,-,0
O=C(O)Cn1c(-c2ccccc2)cc2ccccc21,62.0,0,0,0,0,0
O=C(O)Cn1c(-c2ccccc2)nc2ccccc21,0,0,0,-,0,0
Cc1cccc2cc(-c3nc4ccc(C(=O)O)cc4[nH]3)c(=O)oc12,80.8,0,0,-,0,0
Cc1cc(F)ccc1NC(=O)c1cc(S(=O)(=O)N2CCCC2)cn1C,68.7,0,0,0,0,0
COc1ccccc1NC(=O)c1cc(S(=O)(=O)N2CCCC2)cn1C,-,0,0,0,0,0
COc1ccc(NC(=O)N(C)C[C@H]2Oc3c(NS(=O)(=O)c4ccc(C)cc4)cccc3C(=O)N([C@H](C)CO)C[C@@H]2C)cc1,-,-,-,-,-,0
CC(C)=C1C(=O)NN(c2ccc(C)c(Cl)c2)C1=O,0,0,0,0,0,-
CC(C)=C1C(=O)NN(c2cccc(Cl)c2)C1=O,74.1,0,0,0,-,0
OCCCNc1c2ccccc2nc2ccccc12,0,0,18.6,-,0,0
Fc1cccc(NCCc2c[nH]c3ccccc23)n1,0,0,0,0,0,0
COCCNc1c2c(nc3ccccc13)CCC2,0,0,0,0,0,0
CN(C)CCCNc1c2c(nc3ccccc13)CCC2,0,0,20.3,0,0,0
c1ccc2c(NCCc3c[nH]c4ccccc34)c3ccccc3nc2c1,0,0,123.2,0,0,0
CC(=O)Nc1ccc2c(c1)C(=O)N(C)[C@@H]1CC[C@@H](CC(=O)NCCCN3CCOCC3)O[C@@H]1CO2,-,-,-,-,-,0
COc1nc(N/N=C/c2ccc(-c3ccccc3[N+](=O)[O-])o2)nc(N2CCOCC2)n1,0,0,0,0,0,0
O=[N+]([O-])c1ccc(-c2ccc(/C=N/Nc3nc(NCc4ccccc4)nc(N4CCOCC4)n3)o2)cc1,0,0,20.8,0,0,-
CNC(=O)N(O)C1N(C)C(=O)N(CC(=O)OC)C1(C)C (configuration not stated),0,0,0,0,0,0
CCCN1C(=O)N(C)C(N(O)C(=O)NC)C1(C)C (configuration not stated),38.6,0,0,0,0,0
CCOCCCNC(=O)c1ccc2c(=O)n(Cc3ccc4c(c3)OCO4)c(=S)[nH]c2c1,36.8,0,0,0,0,0
CCCCNC(=O)c1ccc2c(=O)n(CCCOCC)c(=S)[nH]c2c1,0,0,0,0,0,0
SMILES,CAL PDZ FP-1,Dyrk1A ADPGlo,dFosB act,CAL PDZ FP-2,CDK5 inh,Yeast UUG start
CCOCCCn1c(=S)[nH]c2cc(C(=O)NC3CCCC(C)C3C)ccc2c1=O (configuration not stated),62.3,0,0,0,0,0
O=C(C[C@@H]1CC[C@@H](NC(=O)c2cccc(F)c2)[C@@H](CO)O1)NCc1ccc(Oc2ccccc2)cc1,-,-,-,-,-,0
COc1cccc(NC(=O)N[C@@H]2CC[C@@H](CC(=O)N3CCN(C)CC3)O[C@@H]2CO)c1,-,-,-,-,-,0
COc1cccc(C#Cc2cnc3c(c2)C(=O)N([C@H](C)CO)C[C@H](C)[C@H](CN(C)C(=O)C2CCC2)O3)c1,-,-,-,-,-,0
O=[N+]([O-])c1ccc(N2CCCC2)cc1NC1CC1,35.6,0,0,0,-,0
CN(C)S(=O)(=O)N1CCN(c2ccc([N+](=O)[O-])c(NC3CC3)c2)CC1,0,0,0,0,0,-
O=C(NCc1nnc(SCC(=O)N2CCCC2)o1)c1c(F)cccc1Cl,0,0,0,0,0,0
O=C(NCc1nnc(SCC(=O)N2CCCCC2)o1)c1c(F)cccc1Cl,78.1,0,0,0,0,0
CC1CCN(C(=O)CSc2nnc(CNC(=O)c3ccc(S(=O)(=O)N(C)C)cc3)o2)CC1,55.5,0,0,0,0,0
CN(C)S(=O)(=O)c1ccc(C(=O)NCc2nnc(SCC(=O)N3CCCCCC3)o2)cc1,0,0,0,0,0,0
O=C(CSc1nnc(CNC(=O)c2c(F)cccc2Cl)o1)NC1CCCC1,74.0,0,0,0,0,0
C[C@@H]1CN([C@@H](C)CO)C(=O)c2c(c3ccccc3n2C)-c2ccccc2CO[C@@H]1CN(C)S(=O)(=O)c1ccc(Cl)cc1,-,-,-,-,-,0
C[C@@H]1CCCCO[C@H](CN(C)S(=O)(=O)c2cccs2)[C@@H](C)CN([C@H](C)CO)C(=O)c2cc(NS(=O)(=O)c3cn(C)cn3)ccc2O1,-,-,-,-,-,0
C[C@@H]1CCCCO[C@@H](CN(C)C(=O)c2ccccc2)[C@H](C)CN([C@H](C)CO)C(=O)c2cc(NC(=O)Nc3ccc4c(c3)OCO4)ccc2O1,-,-,-,-,-,0
CCOC(=O)C1=C(C)NC(C)=C(C(=O)OCC)C1c1ccc(Br)o1,178.6,0,0,0,-,0
CCOC(=O)C1=C(C)NC(=O)NC1c1ccc(Br)o1 (configuration not stated),0,0,0,0,0,-
C[C@@H]1CN([C@@H](C)CO)C(=O)c2cc(NC(=O)CCC(F)(F)F)ccc2O[C@@H](C)CCCCO[C@@H]1CN(C)C(=O)C1CCCCC1,-,-,-,-,-,0
Oc1ccc2ccccc2c1N=Nc1ccc(F)cc1,0,0,104.2,0,0,0
Oc1c(N=Nc2ccc(F)cc2)ccc2ccccc12,0,0,0,0,0,0
C[C@@H]1CN([C@H](C)CO)C(=O)c2cc(NC(=O)Nc3cccc4ccccc34)ccc2O[C@@H](C)CCCCO[C@@H]1CN(C)S(=O)(=O)c1ccc(F)cc1,-,-,-,-,-,0
Cc1c(N/C(=N/S(=O)(=O)c2ccc(F)cc2)c2ccccc2)c(=O)n(-c2ccccc2)n1C,0,0,0,0,0,-
Cc1ccccc1S(=O)(=O)/N=C(/Nc1c(C)n(C)n(-c2ccccc2)c1=O)c1ccccc1,40.1,-,0,0,0,0
C[C@H]1CN([C@@H](C)CO)S(=O)(=O)c2ccc(C#CC3CC3)cc2O[C@H]1CN(C)CC1CCOCC1,-,-,-,-,-,0
COC(=O)/C=C1\SC(=Nc2ccc(Cl)c(Cl)c2)NC1=O,0,0,0,0,0,-
COc1cc(/C=C2\SC(=Nc3ccc(Cl)c(C(=O)O)c3)NC2=O)c(Br)c(Br)c1O,0,65.0,0,0,0,0
C[C@H]1CN([C@@H](C)CO)S(=O)(=O)c2ccc(C3=CCCC3)cc2O[C@H]1CN(C)C(=O)c1ccccn1,-,-,-,-,-,0
